Assay [1] addresses T1, ζ-opioid receptor (Homo sapiens, UniProt Q9NZT2).
T1 sequence (Q9NZT2 1-677): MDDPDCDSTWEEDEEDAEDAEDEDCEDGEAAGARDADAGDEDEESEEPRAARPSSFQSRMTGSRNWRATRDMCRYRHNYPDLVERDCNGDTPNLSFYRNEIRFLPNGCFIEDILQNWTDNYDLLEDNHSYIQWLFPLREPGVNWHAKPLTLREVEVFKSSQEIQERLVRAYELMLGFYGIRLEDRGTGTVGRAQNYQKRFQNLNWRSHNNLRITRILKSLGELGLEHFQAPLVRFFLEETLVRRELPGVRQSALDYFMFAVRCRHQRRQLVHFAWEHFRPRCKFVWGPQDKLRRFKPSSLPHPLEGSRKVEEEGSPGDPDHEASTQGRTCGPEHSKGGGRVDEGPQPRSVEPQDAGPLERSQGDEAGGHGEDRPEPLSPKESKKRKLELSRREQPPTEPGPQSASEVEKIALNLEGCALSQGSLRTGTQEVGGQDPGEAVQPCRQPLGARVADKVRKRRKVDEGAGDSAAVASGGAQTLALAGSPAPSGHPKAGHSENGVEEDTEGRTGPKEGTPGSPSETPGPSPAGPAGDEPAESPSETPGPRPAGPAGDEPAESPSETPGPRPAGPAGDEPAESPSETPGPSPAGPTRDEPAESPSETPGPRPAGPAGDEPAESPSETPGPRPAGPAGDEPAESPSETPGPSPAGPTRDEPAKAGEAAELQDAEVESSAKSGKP
Briefly: Competition for binding of [3H][Met5]enkephalin (4.0 nM) in nuclear homogenates of HT-29 human colon tumors. Also on record: from tissue; host or cells: HT-29 human colon tumor xenografts grown in athymic nude mice; nuclear (P1) and other subcellular fractions. The settings on record: for Ki: read-out: KI nM.

Assay [2] deals with T2, [Met5]-enkephalin receptor (Homo sapiens, UniProt Q9NZT2).
T2 construct: endogenous in cells; host or cells: HT-29 human colon cancer cells, log phase, nuclear pellet (P1)
T2 sequence (Q9NZT2 1-677): T1 sequence (Q9NZT2 1-677)
Briefly: [3H]-[Met5]-enkephalin binding on HT-29 cells after 48 h exposure to OGF or NTX (receptor regulation). The settings on record: read-out: Kd of [3H]-[Met5]-enkephalin; HT-29 cells after 48 h of exposure to the treatment.

Assay [3] deals with T1, ζ-opioid receptor.
The next assay has as its target ζ opioid receptor (Homo sapiens, UniProt Q9NZT2).
Assay [4] addresses T1, ζ-opioid receptor. The settings on record: read-out: binding affinity (Kd); nuclear preparation of cultured HT-29 cells, one-site model.
In assay [5] the target is T1, ζ-opioid receptor. This is another data set of the same source.

The text below walks through data of US6737397B1, “Control of cancer growth through the interaction of [MET5]-enkephalin and the zeta receptor” (The Penn State Research Foundation, priority 1996, dated 2004).

In general, IC50 refers to the midpoint of a concentration-inhibition curve. Read a high IC50 as weaker potency in that assay. Broadly, the Ki is the dissociation constant of the complex between target and ligand, obtained from inhibition or displacement. In general, Kd refers to the constant that tells how readily two partners part at equilibrium.

Like-named read-outs stand apart in the source and are kept apart here.

In the case of [Leu^5]-enkephalin [[Leu^5]enkephalin], on ζ-opioid receptor [1], the IC50 was 75 ± 5 nM and the Ki worked out at 57.7 ± 3.9 nM.

On to [Met^5]-enkephalin, for which the Kd is 1.9 ± 1.1 nM in assay [2]; 15.4 nM at ζ-opioid receptor [3] (read-out: equilibrium dissociation constant Kd, P1 nuclear homogenates of HT-29 tumors, 150 min, 22° C., pH 7.4); 7.1 ± 1.3 nM on ζ opioid receptor (tumors from mice treated with 5 mg/kg OGF three times daily). The IC50 on ζ-opioid receptor [1] stood at 16.5 ± 1.5 nM. Moreover, the inhibition constant Ki at ζ-opioid receptor [1] stood at 12.7 ± 1.2 nM.

In the case of [^3H]-[Met^5]-enkephalin, the Kd on ζ-opioid receptor [4] is 8.9 nM; at ζ-opioid receptor [3] (subcellular fractionation, P1 nuclear fraction), 6.6 ± 0.2 nM; on ζ-opioid receptor [5] (Patient 1, splenic flexure adenocarcinoma), 15.7 ± 6.7 nM; on ζ-opioid receptor [5] (Patient 2, sigmoid adenocarcinoma) it was 6.7 ± 0.5 nM; at ζ-opioid receptor [5] (read-out: equilibrium dissociation constant (Kd), data from both patients averaged) it was 11.2 ± 3.6 nM; at ζ opioid receptor (read-out: binding affinity (Kd), tumor tissue from control animals, one-site model), 10 ± 1.7 nM.

For the substance dynorphin A 1-8 [Dynorphin A-(1-8)], at ζ-opioid receptor [1], the IC50 amounted to 375 ± 25 nM and the Ki worked out at 289 ± 20 nM.
